# Assay results taken from US6387406B1, “Copolymer compositions for oral delivery” (Supratek Pharma Inc., priority 1992, dated 2002).
# Test system: C6 glioma cells
# Settings: i.p. 10, 15, 20 and 25 days after inoculation
structure (smiles),measurement,value
"COc1cccc2c1C(=O)c1c(O)c3c(c(O)c1C2=O)C[C@@](O)(C(=O)CO)C[C@@H]3O[C@H]1C[C@H](N)[C@H](O)[C@H](C)O1 [Free doxorubicin, doxorubicin]",Median survival,10.5 days
